# Tests used:
# [1] = tested on: Male NMRI mice; assay: novel object recognition test (learning and memory formation); type: in vivo; settings: 1000 mg/kg intraperitoneally, 90 min delay, p<0.05, FIG. 3A
# Protocol: Male NMRI mice (Charles River, Germany, 25-35 g) were used in examples 1, 2 and 3. The animals were housed nine per cage in a colony room under constant temperature (20±1° C.) and humidity (50±5%). Animals were allowed to acclimatize for at least one week prior to behavioral testing. The daylight cycle was maintained artificially (lights on from 0600 to 1800 hours) and behavioral experiments were conducted during the light phase. The Ethics Committee for Animal Experiments, Goteborg, Sweden, approved all experimental procedures used in the present study.
# There are several learning and memory tasks that are appropriate for study in rodents. One widely used is the novel object recognition test. The test involves exposing the rodent to two identical objects for a brief period of time (the introductory session). […] Furthermore, very similar aspects of memory formation (involving encoding, con solidation and retrieval of information) can be assessed in human using the Brief Visual Memory Task-Revised (BVMT-R). […]
# The object exploration time was manually scored from the videotapes. […]
# Data are expressed as means and standard errors of the mean (S.E.M.). […]
# A discrimination index was calculated for each animal: Tn/(Tf+Tn)*100 […]
# [2] = tested on: humans; settings: 6 g daily; cited from earlier work
smiles,measurement,setting,value
NCCCC[C@H](N)C(=O)O [L-lysine],discrimination index during the recognition session versus saline,[1],significantly more time exploring the novel object
same,safety of long-term addition to the daily diet,[2],regarded to be safe

# — patent publication US20110237670A1, “IMPROVEMENT OF NORMAL COGNITIVE FUNCTION” (priority 2008, published 2011)
